Literature values as cited in patent US20250179584A1, “PRECISION THERAPY FOR THE TREATMENT OF CANCER” (Novartis AG, priority 2022, published 2025).

Test system: metastatic melanoma
Conditions: 2L/3L regardless of NRAS mutation after anti-PD-(L)-1 progression; literature values; cited from earlier work

IL-2: high-dose IL-2, systemic therapy for metastatic melanoma
ORR: 16%
